Sequences of proteins named here, by UniProt entry; tags and fusion partners are left off.
UniProt P35372, whole entry, species assumed: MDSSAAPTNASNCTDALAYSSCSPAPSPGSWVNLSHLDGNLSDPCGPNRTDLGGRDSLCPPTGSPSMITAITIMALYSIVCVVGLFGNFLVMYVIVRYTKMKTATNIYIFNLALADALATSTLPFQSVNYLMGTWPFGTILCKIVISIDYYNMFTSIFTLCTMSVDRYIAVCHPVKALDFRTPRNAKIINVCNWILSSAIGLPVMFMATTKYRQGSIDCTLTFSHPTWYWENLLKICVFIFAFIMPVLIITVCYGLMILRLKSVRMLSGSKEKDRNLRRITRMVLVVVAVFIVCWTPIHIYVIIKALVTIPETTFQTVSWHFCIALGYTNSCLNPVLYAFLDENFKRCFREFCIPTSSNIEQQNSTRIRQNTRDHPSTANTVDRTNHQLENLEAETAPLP

In patent US6825205B2 (priority 2002, dated 2004):

Molecular target: μ opioid receptor (μ membrane protein) (Homo sapiens, UniProt P35372)
Format: biochemical

CN1CC[C@]23c4c5ccc(O)c4O[C@H]2C(=O)CC[C@H]3[C@H]1C5 [Hydromorphone, reference compound]
GTP-γ-S Activity/Efficacy % DAMGO: 46 ± 4 % DAMGO
